The experiment has as its target Bcl-2 protein (Homo sapiens (Human), UniProt P10415). Description: Inhibition of Bcl-2 by the fluorescence polarisation technique. Conditions: fluorescence polarisation test; concentration that inhibits fluorescence polarisation by 50%; read-out: IC50 (nM) Bcl-2 FP. It counts as binding. Here is the method:
The fluorescence polarisation tests were carried out on microplates (384 wells). […] After incubation for 2 hours, the fluorescence polarisation is measured.

Protein sequences, listed by entry. Tags and fused reporters are not part of them.
UniProt P10415, whole entry: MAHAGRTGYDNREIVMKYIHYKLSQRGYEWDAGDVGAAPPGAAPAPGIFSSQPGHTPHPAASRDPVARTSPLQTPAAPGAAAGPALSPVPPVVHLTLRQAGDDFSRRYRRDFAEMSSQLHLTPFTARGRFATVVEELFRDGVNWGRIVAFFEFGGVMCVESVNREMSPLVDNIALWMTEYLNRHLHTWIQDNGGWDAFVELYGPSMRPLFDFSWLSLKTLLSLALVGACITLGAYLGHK

This passage reports IC50 results from patent publication US9120791B2, “Indolizine compounds, a process for their preparation and pharmaceutical compositions containing them” (LES LABORATOIRES SERVIER, priority 2012, dated 2015).

Counter-ions that a name gives are not always drawn.

As for `O=C(c1cc(-c2cc3c(cc2C(=O)N2Cc4ccccc4C[C@H]2CN2CCOCC2)OCO3)n2c1CCCC2)N(c1ccccc1)c1ccc(O)cc1` [Example 1, N-(4-Hydroxyphenyl)-3-{6-[((3S)-3-(4-morpholinylmethyl)-3,4-dihydro-2(1H)-isoquinolinyl)carbonyl]-1,3-benzdioxol-5-yl}-N-phenyl-5,6,7,8-tetrahydro-1-indolizine carboxamide hydrochloride], the half-inhibitory concentration (IC50) came out at 18 nM. The value for `Cn1ccc2cc(N(C(=O)c3cc(-c4cc5c(cc4C(=O)N4Cc6ccccc6C[C@H]4CN4CCOCC4)OCO5)n4c3CCCC4)c3ccc(O)cc3)ccc21` [Example 10, N-[4-(Hydroxy)phenyl]-N-(1-methyl-1H-indol-5-yl)-3-{6-[((3S)-3-(4-morpholinylmethyl)-3,4-dihydro-2(1H)-isoquinolinyl)carbonyl]-1,3-benzodioxol-5-yl}-5,6,7,8-tetrahydro-1-indolizine carboxamide hydrochloride] was 18 nM; that for `CCOc1ccc(C(=O)N2Cc3ccccc3C[C@H]2CN2CCOCC2)c(-c2cc(C(=O)N(c3ccc(O)cc3)c3ccc4c(ccn4C)c3)c3n2CCCC3)c1` [Example 36, 3-{5-Ethoxy-2-[((3S)-3-(4-morpholinylmethyl)-3,4-dihydro-2(1H)-isoquinolinyl)carbonyl]phenyl}-N-(4-hydroxyphenyl)-N-(1-methyl-H-indol-5-yl)-5,6,7,8-tetrahydro-1-indolizine carboxamide hydrochloride] was 43 nM. For `Cl.[2H]C1([2H])Oc2cc(C(=O)N3Cc4ccccc4C[C@H]3CN3CCOCC3)c(-c3cc(C(=O)N(c4ccc(O)cc4)c4ccc5c(ccn5C)c4)c4n3CCCC4)cc2O1` [Example 37, N-(4-Hydroxyphenyl)-N-(1-methyl-1H-indol-5-yl)-3-{2,2-dideuterio-6-[((3S)-3-(4-morpholinylmethyl)-3,4-dihydro-2(1H)-isoquinolinyl)carbonyl]-1,3-benzodioxol-5-yl}-5,6,7,8-tetrahydro-1-indolizine carboxamide hydrochloride], the IC50 is 19 nM. Consider `Cl.[2H]C1([2H])Oc2cc(C(=O)N3Cc4ccccc4C[C@H]3CN3CCOCC3)c(-c3cc(C(=O)N(c4ccccc4)c4ccc(O)cc4)c4n3CCCC4)cc2O1` [Example 38, N-(4-Hydroxyphenyl)-3-{2,2-dideuterio-6-[((3S)-3-(4-morpholinylmethyl)-3,4-dihydro-2(1H)-isoquinolinyl)carbonyl]-1,3-benzodioxol-5-yl}-N-phenyl-5,6,7,8-tetrahydro-1-indolizine carboxamide hydrochloride], for which the IC50 stood at 21 nM. Take `Cn1ccc2cc(N(C(=O)c3cc(-c4cc5c(cc4C(=O)N4Cc6ccccc6C[C@H]4CN4CCOCC4)OCO5)n4c3CCCCC4)c3ccc(O)cc3)ccc21` [Example 84, hydrochloride]: the IC50 came to 18 nM.
